Measured values: ChEMBL document CHEMBL3526057, “Evaluation of the effects of 20 nonsynonymous single nucleotide polymorphisms of CYP2C19 on S-mephenytoin 4'-hydroxylation and omeprazole 5'-hydroxylation” (Drug Metab Dispos, 2011)

Experiments:
Cytochrome P450 2C19 [1] = molecular target: Cytochrome P450 2C19 (Homo sapiens, UniProt P33261, W212C); experiment: Activity of human recombinant CYP2C19 W212C mutant expressed in Saccharomyces cerevisiae BJ5457 assessed as omeprazole 5'-hydroxylation per pmol protein at 100 uM after 60 mins; assay type: ADME; settings: recombinant enzyme, 1 h
Cytochrome P450 2C19 [2] = molecular target: Cytochrome P450 2C19 (Homo sapiens, UniProt P33261, E92D); experiment: Activity of human recombinant CYP2C19 E92D mutant expressed in Saccharomyces cerevisiae BJ5457 assessed asomeprazole 5'-hydroxylation after 60 mins; assay type: ADME; settings: recombinant enzyme, 1 h

- Drug metabolism (Cytochrome P450 2C19 [1]): 1.78 pmol/min
- Km (Cytochrome P450 2C19 [2]): 8.75 µM
Compound: COc1ccc2[nH]c([S+]([O-])Cc3ncc(C)c(OC)c3C)nc2c1 (configuration not stated) [OMEPRAZOLE]
